Organism: Homo sapiens
Experiment: Selectivity ratio of Ki for human beta1-adrenoceptor to Ki for human beta2-adrenoceptor

Ratio Ki: 1.7
SMILES: CCC1=C(CC)CC2=C(C1)CC(NC[C@H](O)c1ccc(O)c3[nH]c(=O)ccc13)C2

— ChEMBL document CHEMBL2086302, “An investigation into the structure-activity relationships associated with the systematic modification of the β(2)-adrenoceptor agonist indacaterol” (Bioorg Med Chem Lett, 2012)
